The source of these data is publication PMC5509375, “Oxidative stress induced in E. coli by the human antimicrobial peptide LL-37” (PLoS Pathogens, 2017).

In brackets after ≈: the same amount, converted by molar mass.

The test system of assay [1] is E. coli MG1655. The experiment in a line: MIC assay, anaerobic fermentation (oxygen scavenged with PCA/PCD). Type of assay: cell-based. As to conditions: E. coli MG1655, EZRDM, 30°C, 6 hr, PCA 10 mM / PCD 100 nM. On the procedure: (§1) We have measured MICs in aerobic and anaerobic fermentation conditions using a series of two-fold dilutions for the four natural AMPs in the same rich, chemically defined EZRDM medium at 30°C (Table 1). The MIC in anaerobic fermentation conditions is 4-fold higher for LL-37 and 8-fold higher for melittin. […] For cecropin A and for indolicidin, the MIC is the same in aerobic and fermentation conditions. Evidently the activity against E. coli of some, but not all, natural AMPs is enhanced by the presence of oxygen. For LL-37, the primary focus of this study, we also measured the MIC in conditions enabling anaerobic respiration (no oxygen, but supplemented with 10 mM KNO3; Table 2).
Anaerobic MIC values (Table 1) were measured on a 96-well plate that was sealed with plastic wrap. Cells were incubated in EZRDM containing protocatechuic acid (PCA) at 10 mM and protocatechuate 3,4-dioxygenase (PCD) at 100 nM to scavenge oxygen. The plate was incubated at 30°C for 6 hr, followed by OD measurements.

Assay [2] has as its system E. coli MG1655. The experiment in a line: MIC assay, broth microdilution, aerobic growth. The following applies: E. coli MG1655, EZRDM, 30°C, 6 hr, two-fold serial dilutions, reproducible to the same factor of two. The class given is cell-based. The method, then: as §1
The aerobic MIC values for the various AMPs (Table 1) were determined using the broth microdilution method as previously described. Two-fold serial dilutions of LL-37 in 1× EZRDM were performed in separate rows of a polystyrene 96-well plate, with each plate containing an inoculum of E. coli MG1655. The inoculum was a 1:20 dilution from a bulk culture at midlog phase (OD600 = 0.5) grown at 30°C. The plate was incubated at 30°C and shaken at 200 rpm in a Lab-Line Orbital Environ Shaker (model 3527) for 6 hr. The MIC value was taken as the lowest concentration for which no growth was discernible (<0.05 OD) after 6 hr.
On the technique in general: Broth dilution looks for growth in wells or tubes with falling amounts of substance.

With `CC[C@H](C)[C@H](NC(=O)CN)C(=O)NCC(=O)N[C@@H](C)C(=O)N[C@H](C(=O)N[C@@H](CC(C)C)C(=O)N[C@@H](CCCCN)C(=O)N[C@H](C(=O)N[C@@H](CC(C)C)C(=O)N[C@H](C(=O)N[C@H](C(=O)NCC(=O)N[C@@H](CC(C)C)C(=O)N1CCC[C@H]1C(=O)N[C@@H](C)C(=O)N[C@@H](CC(C)C)C(=O)N[C@H](C(=O)N[C@@H](CO)C(=O)N[C@@H](Cc1c[nH]c2ccccc12)C(=O)N[C@H](C(=O)N[C@@H](CCCCN)C(=O)N[C@@H](CCCNC(=N)N)C(=O)N[C@@H](CCCCN)C(=O)N[C@@H](CCCNC(=N)N)C(=O)N[C@@H](CCC(N)=O)C(=O)N[C@@H](CCC(N)=O)C(N)=O)[C@@H](C)CC)[C@@H](C)CC)[C@@H](C)O)[C@@H](C)O)C(C)C)C(C)C` [Melittin], in the assay with E. coli MG1655 [1], the “MIC (μM) Fermentation” value was determined as 40 µM (≈ 114 µg/mL). Also, in the assay on E. coli MG1655 [2], the “MIC (μM) Aerobic” value was found to be 5 µM (≈ 14.2 µg/mL).
